The CC50 is the concentration that lowers cell viability or growth by half.

For one substance, CC50 results are on record in PMC6613765 (Journal of Virology, 2019).

A value given as a limit tells only on which side of the number the result lay.

The data set concerns DBT cells. Particulars: read-out: MHV-A59 CC50.

Regarding Monensin sodium, the CC50 was over 20 µM.
